ChEMBL document CHEMBL1944524, “Synthesis and structure-activity relationship of 5-pyridazin-3-one phenoxypiperidines as potent, selective histamine H(3) receptor inverse agonists” (Bioorg Med Chem Lett, 2012)

The chains behind the UniProt entries cited, without tags or fusion partners. Where a name states a change or a piece, a line headed by the entry shows the natural chain unless it says otherwise.
UniProt Q9QYN8: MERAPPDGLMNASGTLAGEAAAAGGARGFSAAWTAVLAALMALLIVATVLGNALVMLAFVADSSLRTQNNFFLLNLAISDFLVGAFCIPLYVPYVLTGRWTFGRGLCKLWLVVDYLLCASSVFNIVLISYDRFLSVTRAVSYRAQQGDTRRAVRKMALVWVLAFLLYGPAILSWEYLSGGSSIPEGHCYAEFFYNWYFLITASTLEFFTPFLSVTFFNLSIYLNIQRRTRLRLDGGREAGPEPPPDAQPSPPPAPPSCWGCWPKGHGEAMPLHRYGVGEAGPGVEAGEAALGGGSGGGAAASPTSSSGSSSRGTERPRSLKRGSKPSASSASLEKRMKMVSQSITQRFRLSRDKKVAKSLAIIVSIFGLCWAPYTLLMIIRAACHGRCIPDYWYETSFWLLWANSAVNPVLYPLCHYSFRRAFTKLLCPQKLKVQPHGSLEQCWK
UniProt Q9Y5N1: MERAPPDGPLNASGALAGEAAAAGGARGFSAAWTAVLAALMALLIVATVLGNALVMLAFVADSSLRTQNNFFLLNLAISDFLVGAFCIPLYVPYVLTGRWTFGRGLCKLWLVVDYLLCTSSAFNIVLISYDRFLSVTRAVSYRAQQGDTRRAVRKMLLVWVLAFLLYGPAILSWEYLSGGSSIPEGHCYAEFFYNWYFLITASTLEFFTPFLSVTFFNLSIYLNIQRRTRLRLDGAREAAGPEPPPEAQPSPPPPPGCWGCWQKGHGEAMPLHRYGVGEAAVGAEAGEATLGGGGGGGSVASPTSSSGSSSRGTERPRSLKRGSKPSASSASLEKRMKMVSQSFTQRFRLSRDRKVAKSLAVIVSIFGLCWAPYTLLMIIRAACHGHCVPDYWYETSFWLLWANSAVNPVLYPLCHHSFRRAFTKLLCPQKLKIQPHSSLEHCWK

Key:
Histamine H3 receptor [1] = target: Histamine H3 receptor (Rattus norvegicus, UniProt Q9QYN8); experiment: Binding affinity to rat histamine H3 receptor
Histamine H3 receptor [2] = target: Histamine H3 receptor (Homo sapiens, UniProt Q9Y5N1); experiment: Binding affinity to human histamine H3 receptor

For `C[C@@H]1CCCN1CCCOc1ccc(-c2cnn(-c3ccccn3)c(=O)c2)cc1`, the Ki (Histamine H3 receptor [1]) was 3.7 nM and the Ki (Histamine H3 receptor [2]) was 1.7 nM.
